Assay results published in US6846803B1, “Antagonists specific for the corticotropin-releasing factor receptor type 2 (CRFR2)” (priority 1998, dated 2005).
Where two headings read alike, the source gives them in different places. Marks after values point to notes of the source that are not given here. Positions of bridges follow the written chain, without caps; N, C: chain ends. Non-standard residues stand in square brackets, D forms with d. No end group written: not given here. *: point of attachment. ATB = 4-(1-azi-2,2,2-trifluoroethyl)benzoyl, O=C(c1ccc(C2(C(F)(F)F)N=N2)cc1)*; Nle = CCCC[C@H](N)C(=O)O

Legend:
mCRFR2β [1] = molecular target: T1, mCRFR2β (Mus musculus, UniProt Q60748); assay: Displacement of [^125I-Tyr^0]Svg from membranes of HEK-mCRFR2β cells; type: binding
T1 construct: expressed in transfected cells; host or cells: HEK 293 cells, stably transfected (HEK-mCRFR2β); membrane homogenates
Procedure: (§1) Binding assays were performed in 96-well MultiScreen plates (Millipore, Eschborn, Germany) with GF/B filters (pore size 1.0 μm). […] After incubation (60 min, 23° C.), membrane suspension was aspirated through the plate, followed by two washes with assay buffer (0.2 ml, 23°). Radioactivity of the punched filters was measured with a 1470 WIZARD automatic gamma counter (Berthold, Hannover). […] Statistical analysis was performed with ANOVA, and significant differences between groups were determined by post hoc comparison using the Dunn test.
(§2) Membrane homogenates of human embryonic kidney (HEK) 293 cells stably transfected with cDNA coding for rat CRF receptor, type 1 (rCRFR1) or mouse CRF receptor, type 2β (mCRFR2β) were prepared according to standard protocols (see, e.g., Sambrook et al., Molecular Cloning: A Laboratory Manual, 2nd. Edition, Cold Spring Habor Laboratory Press, Cold Spring Habor, N.Y., 1989; Ausubel et al., Current Protocols in Molecular Biology, Green Publishing Associates and Wiley Interscience, NY, 1989).

rCRFR1 [2] = molecular target: T2, rCRFR1 (Rattus norvegicus, UniProt P35353); assay: Displacement of [^125I-Tyr^0]oCRF from membranes of HEK-rCRFR1 cells; type: binding
T2 construct: expressed in transfected cells; host or cells: HEK 293 cells, stably transfected (HEK-rCRFR1)
T2 sequence (P35353 24-415): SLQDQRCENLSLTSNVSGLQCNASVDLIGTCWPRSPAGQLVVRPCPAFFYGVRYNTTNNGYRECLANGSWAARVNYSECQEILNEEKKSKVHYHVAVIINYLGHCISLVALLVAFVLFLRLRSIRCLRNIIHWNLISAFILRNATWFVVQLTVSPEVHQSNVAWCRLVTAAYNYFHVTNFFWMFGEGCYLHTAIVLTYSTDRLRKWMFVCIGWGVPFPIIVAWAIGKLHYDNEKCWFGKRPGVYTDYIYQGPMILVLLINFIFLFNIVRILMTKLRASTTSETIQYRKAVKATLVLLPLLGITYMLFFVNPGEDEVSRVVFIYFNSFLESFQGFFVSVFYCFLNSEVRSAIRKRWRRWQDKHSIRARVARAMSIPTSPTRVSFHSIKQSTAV
Procedure: as §1, §2

rCRFR1 [3] = molecular target: T2, rCRFR1; assay: cAMP stimulation / inhibition of oCRF-stimulated cAMP production in HEK-rCRFR1 cells; type: cell-based
Procedure: (§3) HEK-rCRFR1 cells or HEK-mCRFR2β cells were incubated with different CRF agonists in the presence or absence of 1 μM or 10 nM antagonist, or CRF antagonist (c=1 μM) alone. After removal of the medium, cells were lyzed with aqueous 6% trichloroacetic acid (5 min, 100° C.) (Rühmann, A., A. K. E. Köpke, F. M. Dautzenberg, and J. Spiess, Proc. Natl. Acad. Sci. USA 93: 10609-10613, 1996). The cell lysates were stored at −70° C. until assayed with a RIA kit (Amersham, Little Chalfont). […] Statistical significance was determined across groups with ANOVA, and significant differences between groups were determined by post hoc comparison using the Dunn test.
(§4) Intrinsic activities were measured at peptide concentrations generating maximal formation of cAMP in HEK-rCRFR1 or HEK-mCRFR2β cells.

mCRFR2β [4] = molecular target: T1, mCRFR2β; assay: cAMP stimulation / inhibition of Svg-stimulated cAMP production in HEK-mCRFR2β cells; type: cell-based
Procedure: as §3, §4

[5] = molecular target: T3, rat CRF receptor, type 1 (rCRFR1) (rat, UniProt P35353 24-415); assay: displacement of [125I-Tyr0]oCRF from HEK-rCRFR1 membranes
T3 construct: whole, on cells; cAMP assays on the whole cells; also called HEK-rCRFR1 cells
T3 sequence (looked up): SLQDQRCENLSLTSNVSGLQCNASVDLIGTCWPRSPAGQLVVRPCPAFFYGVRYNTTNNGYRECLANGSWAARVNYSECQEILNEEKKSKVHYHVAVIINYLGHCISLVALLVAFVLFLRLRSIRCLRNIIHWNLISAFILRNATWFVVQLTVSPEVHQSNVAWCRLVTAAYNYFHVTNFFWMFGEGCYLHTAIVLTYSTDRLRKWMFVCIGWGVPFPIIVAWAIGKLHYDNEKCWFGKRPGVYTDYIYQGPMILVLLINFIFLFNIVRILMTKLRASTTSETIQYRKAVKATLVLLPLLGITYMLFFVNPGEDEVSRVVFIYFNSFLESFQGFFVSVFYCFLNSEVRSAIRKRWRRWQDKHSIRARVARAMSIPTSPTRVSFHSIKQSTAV

[6] = molecular target: mouse CRF receptor, type 2β (mCRFR2β) (mouse) (UniProt Q60748); assay: displacement of [125I-Tyr0]Svg from HEK-mCRFR2β membranes
[7] = molecular target: T3, rat CRF receptor, type 1 (rCRFR1); assay: displacement of [125I-Tyr0]oCRF from HEK-rCRFR1 membranes; remark: listed apart in the source
Procedure: as §1

[8] = molecular target: mouse CRF receptor, type 2β (mCRFR2β) (mouse) (UniProt Q60748); assay: Kd(rCRFR1)/Kd(mCRFR2β) of the peptide normalised to that of astressin; radioligand displacement
[9] = molecular target: T3, rat CRF receptor, type 1 (rCRFR1); assay: displacement of [125I-Tyr0]oCRF from HEK-rCRFR1 membranes; remark: listed apart in the source
Procedure: as §1

[10] = read-out: Kd(mCRFR2β), Table 1, [^125I-Tyr^0]Svg as competitive ligand, recombinant mCRFR2β, HEK 293 membranes
[11] = read-out: Kd(rCRFR1), Table 1, [^125I-Tyr^0]oCRF as competitive ligand, recombinant rCRFR1, HEK 293 membranes
[12] = read-out: Kd, binding to mCRFR2β, membranes of HEK-mCRFR2β cells
[13] = read-out: Kd, binding to rCRFR1, membranes of HEK-rCRFR1 cells

Question: “[DLeu^11, Glu^12]rUcn(11-40) [compound 9]” was tested. Which Kd (mCRFR2β [1]; [10]) did it give?
Answer: 27.9 ± 3.4 nM

Question: What about the Kd (rCRFR1 [2]; [11]) of the same molecule?
Answer: 91.1 ± 21.2 nM

Question: For “[DPhe^11, Glu^12]rUcn(11-40) [compound 8]”, which Kd (mCRFR2β [1]; [12]) is on record?
Answer: 9.5 ± 2 nM

Question: And the Kd (rCRFR1 [2]; [13])?
Answer: 68.2 ± 20.5 nM

Question: What does the source list for [DPhe^11]rUcn(11-40) [compound 7]?
Answer: Kd (mCRFR2β [1]; [10]): 5.2 ± 1.5 nM; Kd (rCRFR1 [2]; [11]): 33 ± 5.9 nM

Question: What does the source list for “[DPhe^12, Nle^21,38]h/rCRF(12-41) [compound 5, reference compound]”?
Answer: Kd (mCRFR2β [1]; [10]): 17.7 ± 2.2 nM; Kd (rCRFR1 [2]; [11]): 46.4 ± 9.4 nM

Question: For [DPhe^12]oCRF(12-41) [compound 6], which Kd (mCRFR2β [1]; [10]) is on record?
Answer: 154 ± 26.8 nM

Question: And the Kd (rCRFR1 [2]; [11])?
Answer: 290 ± 74.7 nM

Question: With “cyclo(29-32)[DPhe^11, Glu^29, Lys^32]rUcn(11-40) [compound 10]” as the molecule, how does the Kd (mCRFR2β [1]; [10]) read?
Answer: 22.4 ± 4.6 nM

Question: What about the Kd (rCRFR1 [2]; [11]) of the same molecule?
Answer: 47.1 ± 8.9 nM

Question: What does the source list for “cyclo(30-33)[DPhe^12, Nle^21,38, Glu^30, Lys^33]h/rCRF(12-41) [compound 3, reference compound]”?
Answer: rCRFR1 relative in vitro potency (rCRFR1 [3]; Table 2, 1 μM antagonist, cAMP production stimulated by 1 nM oCRF, oCRF alone = 1.00 (lower = stronger inhibition)): 0.11 ± 0.03^f; HEK-rCRFR1 cells rel. IA (relative intrinsic activity) (rCRFR1 [3]; Table 4, 1 μM CRF antagonist alone, cAMP production, oCRF = 1.00): 0.10 ± 0.02; HEK-rCRFR1 cells rel. pot. (relative potency) (rCRFR1 [3]; Table 4, 1 μM antagonist, cAMP production stimulated by 1 nM oCRF, oCRF alone = 1.00): 0.11 ± 0.03; mCRFR2β relative in vitro potency (mCRFR2β [4]; Table 2, 10 nM antagonist, cAMP production stimulated by 1 nM Svg, Svg alone = 1.00 (lower = stronger inhibition)): 0.57 ± 0.04; HEK-mCRFR2β cells rel. pot. (relative potency) (mCRFR2β [4]; Table 4, 10 nM antagonist, cAMP production stimulated by 1 nM Svg, Svg alone = 1.00): 0.57 ± 0.04; HEK-mCRFR2β cells rel. IA (relative intrinsic activity) (mCRFR2β [4]; Table 4, 1 μM CRF antagonist alone, cAMP production, Svg = 1.00): 0.004 ± 0.001

Question: What does the source list for α-helical CRF(9-41) (peptide)?
Answer: Kd [5]: 60.3 nM; Kd [6]: 6.4 nM

Question: What does the source list for “α-helical CRF(9-41) [compound 4, reference compound]”?
Answer: Kd (mCRFR2β [1]; [12]): 6.4 ± 0.9 nM; Kd (rCRFR1 [2]; [13]): 60.3 ± 10.6 nM

Question: Which results are given for FHLLREVLEMARAEQLAQQAHSNRKLMEII (D-Phe at 12; Nle at 21 and 38 (h/rCRF numbering), also called compound 5) [[DPhe^12, Nle^21,38]h/rCRF(12-41)]?
Answer: Kd [7]: 46.4 nM; Kd [6]: 17.7 nM

Question: With FHLLRTILELARTQSQRERAEQNRIIFDSV (D-Phe at 11 (rUcn numbering), also called compound 7) [[DPhe^11]rUcn(11-40)] as the molecule, how does the Kd [7] read?
Answer: 33 nM

Question: And the Kd [6]?
Answer: 5.2 nM

Question: Which Kd [7] does the source give for LELLRTILELARTQSQRERAEQNRIIFDSV (D-Leu at 11 (rUcn numbering), also called compound 9) [[DLeu^11, Glu^12]rUcn(11-40)] here?
Answer: 91.1 nM

Question: What about the Kd [6] of the same molecule?
Answer: 27.9 nM

Question: FELLRTILELARTQSQRERAEQNRIIFDSV (D-Phe at 11 (rUcn numbering), also called compound 8) [[DPhe^11, Glu^12]rUcn(11-40)] was tested. Which Kd [7] did it give?
Answer: 68.2 nM

Question: And the Kd [6]?
Answer: 9.5 nM

B1: cyclo(29-32)[DPhe^11, Glu^29, Lys^32]rUcn(11-40) (peptide)
peptide: FHLLRTILELARTQSQREEAEKNRIIFDSV
modifications: D-Phe at 11; cyclo(29-32) side-chain bridge between Glu29 and Lys32 (rUcn numbering)
notes: also called compound 10
Question: For B1, which Kd [7] is on record?
Answer: 47.1 nM

Question: What about the Kd [6] of the same molecule?
Answer: 22.4 nM

B2: ATB-cyclo(30-33)[Nle^21,38, Glu^30, Ala^32, Lys^33]h/rCRF(13-41) (peptide)
peptide: {ATB}-HLLREVLE[Nle]ARAEQLAQEAAKNRKL[Nle]EII
modifications: lactam 18-21; ends not checked
notes: also called ATB-[Ala^32]astressin; compound 15
Question: Which Selectivity [8] does the source give for B2 here?
Answer: 1.43

Question: And the Kd [6]?
Answer: 2.6 nM

B3: ATB-cyclo(30-33)[Nle^21,38, Glu^30, Tyr^32, Lys^33]h/rCRF(13-41) (peptide)
peptide: {ATB}-HLLREVLE[Nle]ARAEQLAQEAYKNRKL[Nle]EII
modifications: lactam 18-21; ends not checked
notes: also called ATB-[Tyr^32]astressin; compound 16
Question: For B3, which Kd [6] is on record?
Answer: 38.2 nM

B4: astressin, cyclo(30-33)[DPhe^12, Nle^21,38, Glu^30, Lys^33]h/rCRF(12-41) (peptide)
peptide: FHLLREVLEBARAEQLAQEAHKNRKLBEII
modifications: D-Phe at 12; Nle at 21 and 38; cyclo(30-33) side-chain bridge between Glu30 and Lys33 (h/rCRF numbering)
notes: also called compound 3
Question: What does the source list for B4?
Answer: Kd [7]: 5.7 nM; Kd [9]: 5.7 nM

Question: Which Kd [7] does the source give for FHLLREVLEMTKADQLAQQAHSNRKLLDIA (D-Phe at 12 (oCRF numbering), also called compound 6) [[DPhe^12]oCRF(12-41)] here?
Answer: 290 nM
